# This is a selection; strong and weak results do not stand in their true shares. Activity calls are given as the source filed them.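 How the source made its calls: active means binding more than 3 SD below its plate's average and above zero; inconclusive means below that plate limit but binding exactly zero; inactive means the rest.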
# Sequences of proteins named here, by UniProt entry; tags and fusion partners are left off.
# UniProt P32926, whole entry, looked up: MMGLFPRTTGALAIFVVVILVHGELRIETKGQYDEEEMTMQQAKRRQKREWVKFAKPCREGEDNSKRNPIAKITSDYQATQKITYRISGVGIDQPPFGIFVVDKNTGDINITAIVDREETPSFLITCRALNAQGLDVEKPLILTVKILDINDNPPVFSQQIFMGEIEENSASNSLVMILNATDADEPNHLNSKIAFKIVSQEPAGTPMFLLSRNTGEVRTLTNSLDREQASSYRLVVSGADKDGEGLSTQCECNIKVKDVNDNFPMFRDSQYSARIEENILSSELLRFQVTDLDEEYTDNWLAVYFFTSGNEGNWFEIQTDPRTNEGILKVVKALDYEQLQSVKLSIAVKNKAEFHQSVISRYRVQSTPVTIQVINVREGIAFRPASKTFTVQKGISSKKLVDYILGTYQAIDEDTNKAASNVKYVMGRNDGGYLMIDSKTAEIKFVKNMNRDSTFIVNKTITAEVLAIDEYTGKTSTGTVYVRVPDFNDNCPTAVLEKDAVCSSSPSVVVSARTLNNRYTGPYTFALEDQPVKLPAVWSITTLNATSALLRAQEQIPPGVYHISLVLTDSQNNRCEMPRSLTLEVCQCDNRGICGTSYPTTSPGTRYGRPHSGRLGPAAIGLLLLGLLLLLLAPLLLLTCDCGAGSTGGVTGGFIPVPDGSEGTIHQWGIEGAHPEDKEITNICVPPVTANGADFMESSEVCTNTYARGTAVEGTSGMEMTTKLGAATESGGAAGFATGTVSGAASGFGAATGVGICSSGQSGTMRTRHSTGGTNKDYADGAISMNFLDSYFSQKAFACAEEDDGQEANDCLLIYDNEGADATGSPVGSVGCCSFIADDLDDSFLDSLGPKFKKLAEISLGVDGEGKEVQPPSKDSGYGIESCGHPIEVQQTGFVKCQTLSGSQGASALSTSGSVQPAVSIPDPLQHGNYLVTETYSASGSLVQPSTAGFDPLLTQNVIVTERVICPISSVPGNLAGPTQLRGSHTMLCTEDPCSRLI
# Target: Desmoglein-3 (Homo sapiens) (UniProt P32926)
# Assay: inhibitors of pemphigus antibody binding to DSG3, primary screen, biochemical, bead-based, flow cytometry, scFv-GFP (AID 588358);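 further: hits lower antibody fragment binding to DSG3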
# Conditions: DSG3-coupled beads, scFv-anti-DSG3-GFP binding, at 10 µM, active compounds read low
row,SMILES,binding (percent of control)
1,Cc1cc(N(CCCl)CCCl)ccc1C=O,inactive: 84.7%
2,CCCN1CCC(Nc2cc(OC)cc(OC)c2)CC1,inactive: 119%
3,c1ccc(CN2CCC(Nc3ccccc3)CC2)cc1,inactive: 111%
4,CN(C)C1(CNC(=O)c2cccc(C#N)c2)CCCCC1,inactive: 81.9%
5,CC(C)(C)OC(=O)N1CCC(N(C(=O)c2ccccc2)c2ccc(Cl)cc2)CC1,inactive: 103%
6,N#Cc1ccc(C(=O)NCC2(N3CCCCC3)CCCCC2)cc1,inactive: 85.1%
7,N/C(=N\O)c1c(N)no[n+]1[O-],inactive: 93.4%
8,CCOC(=O)N1CCC(Nc2ccc(C)cc2)CC1,inactive: 118%
9,COc1ccc(C(=O)NCC2(N3CCOCC3)CCCCC2)cc1OC,inactive: 98.3%
10,CN1CCC(Nc2ccc(Cl)cc2)CC1,inactive: 109%
11,CCC(CO)(C(=O)OC1CN2CCC1CC2)c1ccccc1 (configuration not stated),inactive: 112%
12,COc1cc(OC)cc(C(=O)NCC2(N3CCOCC3)CCCCC2)c1,inactive: 97.9%
13,CCCOc1ccc(C(=O)NCC2(N(C)C)CCCCC2)cc1,inactive: 87%
14,O=C(O)C1(Nc2ccccc2)CCN(Cc2ccccc2)CC1,inactive: 108%
15,CC(C)(C)OC(=O)N1CCC(Nc2ccccc2)CC1,inactive: 104%
16,CN1CCC(Nc2ccc(F)c(Cl)c2)CC1,inactive: 118%
17,CCOc1ncccc1C(=O)NCC1(N2CCOCC2)CCCCC1,inactive: 95.8%
18,CN(C)c1ccc(C(=O)NCC2(N3CCCCC3)CCCCC2)cc1,inactive: 121%
19,Cn1c(=O)[nH]cc(N(CCCl)CCCl)c1=O,inactive: 115%
20,Cc1ccccc1NC1(C#N)CCN(Cc2ccccc2)CC1,inactive: 93.1%
21,Cc1ccc(NC2(C#N)CCN(Cc3ccccc3)CC2)cc1,inactive: 122%

row,SMILES,binding (percent of control)
1,Fc1ccccc1NC1CCN(Cc2ccccc2)CC1,inactive: 105%
2,Cc1ccc(C(=O)NCC2(N3CCCCC3)CCCCC2)o1,inactive: 97.1%
3,COc1cc(OC)cc(C(=O)NCC2(N3CCCCC3)CCCCC2)c1,inactive: 112%
4,CC(=O)N(c1ccccc1)C1CCNCC1,inactive: 93.7%
5,CCOC(=O)N1CCC(Nc2cccc(C)c2)CC1,inactive: 125%
6,COc1cc(C(=O)NCC2(N(C)C)CCCCC2)ccc1OC(F)F,inactive: 116%
7,CCOC(=O)N1CCC(Nc2ccc(F)cc2)CC1,inactive: 106%
8,COc1ccc(NC2CCN(CCc3ccccc3)CC2)c(OC)c1,inactive: 105%
9,CCCCOc1ccc(C(=O)NCC2(N3CCOCC3)CCCCC2)cc1,inactive: 101%
10,O=P1(N(CCCl)CCCl)SCCCS1,inactive: 94.8%
11,O=C(NCC1(N2CCCCC2)CCCCC1)c1ccc(F)cc1,inactive: 96.1%
12,CCOc1ccc(C)cc1CN(CCCl)CCCl,inactive: 109%
13,CCOC(=O)N1CCC(Nc2ccc(OC)cc2)CC1,inactive: 104%
14,COc1ccc(Cl)cc1C(=O)NCC1(N2CCOCC2)CCCCC1,inactive: 103%
15,O=C(NCC1(N2CCCCC2)CCCCC1)c1ccc(Cl)s1,inactive: 119%
16,O=C(OC1CN2CCC1CC2)C1c2ccccc2Oc2ccccc21 (configuration not stated),inactive: 104%
17,O=C(NCC1(N2CCOCC2)CCCCC1)c1cc2ccccc2o1,inactive: 101%
18,Cc1cc(C)cc(N(C(=O)c2ccccc2)C2CCN(C(=O)OC(C)(C)C)CC2)c1,inactive: 79.8%
19,O=C(NCC1(N2CCCCC2)CCCCC1)c1ccc(Cl)nc1,inactive: 117%
20,Cc1cccc(NC2(C#N)CCN(Cc3ccccc3)CC2)c1,inactive: 114%
21,CSc1ccccc1C(=O)NCC1(N2CCCCC2)CCCCC1,inactive: 106%

row,SMILES,binding (percent of control)
1,O=C(NCC1(N2CCCCC2)CCCCC1)c1cccs1,inactive: 124%
2,O=C(NCC1(N2CCCCC2)CCCCC1)c1ccc(=O)[nH]c1,inactive: 107%
3,CC(C)(C)OC(=O)N1CCC(N(C(=O)c2ccccc2)c2ccc(F)cc2)CC1,inactive: 103%
4,COc1ccc(C(=O)NCC2(N3CCCCC3)CCCCC2)c(OC)c1OC,inactive: 97.2%
5,CCCOc1ccc(C(=O)NCC2(N(C)C)CCCCC2)cc1OC,inactive: 93.7%
6,Cc1ccc(C(=O)NCC2(N(C)C)CCCCC2)o1,inactive: 100%
7,CN1CCC(Nc2cccc(F)c2)CC1,inactive: 102%
8,O=C(NCC1(N2CCCCC2)CCCCC1)c1cncc(Br)c1,inactive: 99.8%
9,O=C(NCC1(N2CCOCC2)CCCCC1)c1cc(F)c(F)cc1Cl,inactive: 100%
10,COc1cc(OC)c(C(=O)NCC2(N(C)C)CCCCC2)cc1OC,inactive: 96.8%
11,CN(C)c1cccc(C(=O)NCC2(N3CCCCC3)CCCCC2)c1,inactive: 111%
12,COc1ccc(CN(CCCl)CCCl)cc1Cl,inactive: 105%
13,CC(C)c1ccc(C(=O)NCC2(N3CCOCC3)CCCCC2)cc1,inactive: 104%
14,COc1ccc(NC2CCN(C(=O)OC(C)(C)C)CC2)cc1,inactive: 101%
15,CN1CCN(CCOC(=O)C(O)(c2ccccc2)c2ccccc2)CC1,inactive: 99.9%
16,O=C(NCC1(N2CCOCC2)CCCCC1)c1cc(=O)[nH]c2ccccc12,inactive: 106%
17,O=C(NCC1(N2CCCCC2)CCCCC1)c1cccc([N+](=O)[O-])c1,inactive: 102%
18,CSc1ccc(C(=O)NCC2(N3CCOCC3)CCCCC2)cc1,inactive: 101%
19,N#CC1(Nc2ccccc2)CCN(CCc2ccccc2)CC1,inactive: 108%
20,CCN1CCC(Nc2ccc(Cl)cc2)CC1,inactive: 110%

# Source: PubChem BioAssay AID588358 (NMMLSC, 2011)
